# The list shows a part of the results, in another mix than the full data. Active and inactive are the calls of the source.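 Rule for the calls: active = inhibition above about 70% (limit read from the data); inactive = the rest.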
# Chains of the proteins cited; added tags and fusions are not shown. Lines headed by an entry give the natural chain unless they say otherwise; changes in a name come on top.
# UniProt P63103: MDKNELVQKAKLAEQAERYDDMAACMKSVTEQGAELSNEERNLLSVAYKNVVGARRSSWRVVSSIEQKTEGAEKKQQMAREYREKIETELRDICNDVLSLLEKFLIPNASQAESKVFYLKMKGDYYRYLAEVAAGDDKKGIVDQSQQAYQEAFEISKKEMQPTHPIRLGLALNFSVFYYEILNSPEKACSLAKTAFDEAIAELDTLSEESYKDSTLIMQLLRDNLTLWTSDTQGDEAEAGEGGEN
# Target: 14-3-3 protein zeta/delta (Bos taurus) (UniProt P63103)
# Assay: inhibitors of 14-3-3 zeta/Bad binding, primary screen, biochemical, TR-FRET, bovine 14-3-3 zeta (AID 781);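 note: 0% = full 14-3-3 plus peptide FRET controls and 100% = background without 14-3-3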
# Details: TR-FRET 14-3-3zeta/Dy647-pBad peptide displacement, 1 h; at 21.7 µM; stronger effect = higher value
row,SMILES,inhibition
1,O=P(Nc1nccs1)(Oc1ccccc1)Oc1ccccc1,inactive: -8.49%
2,O=P(Nc1nccs1)(c1ccccc1)c1nc2ccccc2s1 (stereo unspecified),inactive: 37.6%
3,CCOP1(=S)c2c(C)nn(CCC#N)c2N=C(c2ccccc2F)N1C (stereo unspecified),inactive: 1.97%
4,CS(=O)(=O)c1cc([N+](=O)[O-])c2no[n+]([O-])c2c1,inactive: 7.75%
5,Nc1ccccc1[As](=O)(O)c1ccccc1,inactive: -4.32%
6,O=C(O)COc1ccc([As](=O)(O)O)cc1[N+](=O)[O-],inactive: 7%
7,NC(=O)Nc1ccc([As](=O)(O)O)cc1,inactive: -6.1%
8,CN(C(=O)Cc1ccccc1)[C@@H]1CC[C@]2(CCCO2)C[C@H]1N1CCCC1,inactive: -5.67%
9,CCOP1(=S)c2c(C)nn(CCC#N)c2N=C(c2ccc(F)cc2)N1C (stereo unspecified),inactive: -5.01%
10,O=[N+]([O-])c1ccc2c(c1)nnn2O,inactive: 33.1%
11,CC1CCC(C(C)C)C(OP(=O)(Nc2ccccn2)c2ccccc2)C1 (stereo unspecified),inactive: -2.69%
12,Cc1nn(-c2ccccc2)c2c1P(=O)(N1CCOCC1)N(C)C(c1ccccc1)=N2 (stereo unspecified),inactive: -9.32%
13,CN(C)C1(CNC(=O)c2ccc(S(C)(=O)=O)cc2)CCCCC1,inactive: -0.72%
14,O=C(/C=C/c1ccccc1)OC1CN2CCC1CC2 (stereo unspecified),inactive: -1.71%
15,O=P1(Nc2ncccn2)COc2ccccc2OC1,inactive: -9.76%
16,Nc1cccc([As](=O)(O)c2ccccc2)c1,inactive: -0.44%
17,O=[As](O)(c1cccs1)c1cccs1,inactive: -2.64%
18,Cc1ccc(OCC(=O)OC2CN3CCC2CC3)cc1 (stereo unspecified),inactive: -0.4%
19,O=P1(Nc2ccc(Br)cn2)COc2ccccc2OC1,inactive: -2.69%
20,O=P1(Nc2ccccn2)COc2ccccc2OC1,inactive: 7.74%
21,CCOP(=O)(Nc1ccc(C)cn1)OCC,inactive: 2.2%
22,CC(C)(C)C(=O)NC(Sc1ncccn1)C(Cl)(Cl)Cl (stereo unspecified),inactive: -15.7%
23,Clc1n[nH]nc1-c1nn[nH][15n]1,inactive: 22.7%
24,CC(C)/C=N\N=C(\N)N[N+](=O)[O-],inactive: -15.7%
25,CN(C(=O)Cc1ccc(Cl)c(Cl)c1)[C@@H]1CCCC[C@H]1N1CCCC1,inactive: -2.47%
26,O=[As](O)(c1ccccc1Br)c1ccccc1Br,inactive: 1.3%

# Source: PubChem BioAssay AID781 (Emory University Molecular Libraries Screening Center, 2007)
